Results published in patent publication US20260097045A1, “ANTIMICROBIAL COMBINATIONS” (Helperby Therapeutics Limited, priority 2022, published 2026).

System: Methicillin-resistant Staphylococcus aureus (MRSA)
Experiment: chequerboard assay (percentage of positive control, MIC, FIC) against MRSA
Format: cell-based
Conditions: agent alone, MRSA isolate, read-out: MIC Monotherapy (X)
Source text: FICI or fractional inhibitory concentration index is the sum of the FICs of each antimicrobial when used in combination. The FIC or fractional inhibitory concentration of an antimicrobial in a combination, is the MIC of the antimicrobial in the combination divided by the MIC of the same antimicrobial when used alone. Minimum inhibitory concentrations are defined in the art as the lowest concentration of an antimicrobial that will inhibit the visible growth of a microorganism after overnight incubation.
In the method for a 3-mer combination, one antibiotic was “fixed” as part of a backbone whilst the two other antibiotics were varied over a doubling concentration scale beginning at the MIC (×1) for the effective dose in monotherapy against the organism being tested. The ΣFIC was then calculated as shown below. In the method for a 4-mer combination, two antibiotics were “fixed” as part of a backbone whilst the two other antibiotics were varied over a doubling concentration scale beginning at the MIC (×1) for the effective dose in monotherapy against the organism being tested. […]
The bacteria were obtained from Ninewells Hospital and Medical School in Dundee, Scotland. […] The bacteria were measured for OD600 and readings of <0.25 were returned to the incubator. […]
Plates were read at OD600 in a 96-well plate reader. […]

CC(C)(O/N=C(\C(=O)N[C@@H]1C(=O)N2C(C(=O)[O-])=C(C[n+]3ccccc3)CS[C@H]12)c1csc(N)n1)C(=O)O [Ceftazidime]
MIC: 32 mg/L
